Results from patent publication US8974823B2, “Solid compositions of low-solubility drugs and poloxamers” (Bend Research, Inc., priority 2003, dated 2015).

Legend:
[1] = glass transition temperature (Tg) of the drug; type: physicochemical; conditions: for Tg: Table B, unless noted Tg measured at less than 10% RH
Method: In a first aspect, the invention comprises a solid composition comprising a plurality of particles. The particles comprise a low-solubility drug and a poloxamer. The drug is in intimate contact with the poloxamer in the particles. Collectively, the drug and poloxamer constitute at least 50 wt % of the particles. At least a substantial portion of the drug in the composition is amorphous. The Tg of the drug is at least 50° C. Unless otherwise noted, as used herein the Tg refers to the Tg measured at less than 10% RH.
Such Tg values may represent that of drug dispersed in the amorphous portions of the poloxamer or the Tg of drug-rich phases or domains. […] The Tg of the drug may be at least about 60° C., at least about 70° C., or even at least about 80° C. The Tg of a drug can be determined using standard analytical techniques well known in the art, including by a dynamic mechanical analyzer (DMA), a dilatometer, a dielectric analyzer, and by differential scanning calorimetry (DSC).

Row | Substance | Tg [1] | Tg,drug ([1]; at 0% RH) | Log P (Log P of the drug)
1 | N-(1,1-dimethylethyl) decahydro-2-[(2R,3R)-2-hydroxy-3-[(3-hydroxy-2-methylbenzoyl)amino]-4-(phenylthio)butyl]-3-isoquinolinecarboxamide (3s, 4aS, 8aS)-monomethanesulfonate [Drug 3] | 116 °C | 119 °C | about 4.1
2 | quinoxaline-2-carboxylic acid [4(R)-carbamoyl-1(S)-3-fluorobenzyl)-2(S),7-dihydroxy-7-methyl-octyl]amide | 69 °C |  | 
